# Where “and” joins values, the source holds several entries; their conditions need not be identical. Equal entries are not always repeated. The list shows a part of the results, in another mix than the full data. Some results for these compounds are left out of this collection, so the calls shown say nothing about other tests. Records with an inconclusive call do not appear. Calls of active or inactive are those of the source. The call rests on the fitted dose curve; in most records, active means well fitted cell-killing curve with a large enough effect; inconclusive means small, poorly fitted or top-dose-only effect, or effect the other way; inactive means no such curve, though single readings can be large or run the other way.
# Experiment: Viability Counterscreen for Primary qHTS for Inhibitors of ATXN expression; further: nearly all actives have a fitted effect of over 40% in size
# Settings: S2 cells (HEK-293 line with an ATXN2-luciferase reporter) viability, CellTiter-Fluor protease fluorescence, 24 h; at 56.7 µM (top of the series)
row,SMILES,"activity change, negative = cytotoxicity"
1,CN(C)C1CCCC1OC(=O)C(O)(c1ccccc1)c1ccccc1 (stereo unspecified),inactive: -31.6%
2,CN(C)c1ccc(C(=O)NCC2(N(C)C)CCCCC2)cc1,inactive: -14.7%
3,CN(C)C1(CNC(=O)c2ccccc2[N+](=O)[O-])CCCCC1,inactive: 7.46%
4,Cc1ccccc1C(=O)NCC1(N2CCCCC2)CCCCC1,inactive: -37.6%
5,CCCCOc1ccccc1C(=O)NCC1(N(C)C)CCCCC1,inactive: -20.3%
6,O=C(NCC1(N2CCCCC2)CCCCC1)c1cc(F)c(F)cc1Cl,inactive: 30.7%
7,C=CCN1CCN(CCOC(=O)C(O)(c2ccccc2)c2ccccc2)CC1,inactive: -7.75%
8,CCOc1cccc(C(=O)NCC2(N(C)C)CCCCC2)c1,inactive: -12%
9,COc1ccc(C(=O)NCC2(N(C)C)CCCCC2)cc1,inactive: -17.3%
10,O=C(NCC1(N2CCCCC2)CCCCC1)c1cccc(Br)c1,inactive: -34.2%
11,Cc1cc(C(=O)NCC2(N3CCCCC3)CCCCC2)ccc1[N+](=O)[O-],inactive: -16.8%
12,CCN1CCCC(OC(=O)C2(O)c3ccccc3C=Cc3ccccc32)C1 (stereo unspecified),inactive: -11.3%
13,O=C(NCC1(N2CCCCC2)CCCCC1)c1cc([N+](=O)[O-])ccc1Cl,inactive: -17.2%
14,CN1[C@@H]2CC[C@H]1CC(OC(=O)C(O)(c1ccccc1)c1ccccc1)C2 (stereo partly specified),inactive: -7.72%
15,COc1cc(SC)ccc1C(=O)NCC1(N(C)C)CCCCC1,inactive: -8.41%
16,CCN(CC)CC(C)C(C)OC(=O)C(O)(c1ccccc1)c1ccccc1 (stereo unspecified),inactive: -16.5%
17,CN(C)C1(CNC(=O)c2cccc(Cl)c2)CCCCC1,inactive: -18.3%
18,CC(C)N1C(=O)CC2(CCN(CCOC(=O)C(O)(c3ccccc3)c3ccccc3)CC2)C1=O,inactive: -18.8%

row,SMILES,"activity change, negative = cytotoxicity"
1,Cc1ccc(C(=O)NCC2(N3CCCCC3)CCCCC2)cc1,inactive: -20.5%
2,CN(C)C1(CNC(=O)c2ccccc2F)CCCCC1,inactive: -2.42%
3,COc1cccc(C(=O)NCC2(N3CCOCC3)CCCCC2)c1,inactive: -18.5%
4,O=C(OC1CN2CCC1CC2)C(CO)(c1ccccc1)c1ccccc1 (stereo unspecified),inactive: -11.7%
5,CC(C)COc1ccc(C(=O)NCC2(N(C)C)CCCCC2)cc1,inactive: -33.9%
6,C=C(C)C#CC(O)(C(=O)OC1CCN(C)CC1)c1ccccc1 (stereo unspecified),inactive: -28.8%
7,COc1ccc(Br)c(C(=O)NCC2(N3CCCCC3)CCCCC2)c1,inactive: -24.9%
8,COc1cc(C(=O)NCC2(N(C)C)CCCCC2)cc(OC)c1OC,inactive: -29.6%
9,Cc1cccc(C(=O)NCC2(N(C)C)CCCCC2)c1,inactive: -17.4%
10,O=C(OCCN1CCCC1)C(O)(c1ccccc1)c1ccccc1,inactive: -39.5%
11,CC(C)Oc1ccc(C(=O)NCC2(N(C)C)CCCCC2)cc1,inactive: -1.75% and inactive: -20.6%
12,CN(C)c1cccc(C(=O)NCC2(N(C)C)CCCCC2)c1,inactive: -27.6%
13,CN(C)C1(CNC(=O)c2ccc(Br)cc2)CCCCC1,inactive: -0.772%
14,COc1cc(C(=O)NCC2(N(C)C)CCCCC2)c([N+](=O)[O-])cc1OC,inactive: -13.8%
15,COc1ccc(Cl)cc1C(=O)NCC1(N(C)C)CCCCC1,inactive: 11.7%
16,COc1cccc(C(=O)NCC2(N3CCCCC3)CCCCC2)c1,inactive: -17.2%
17,COc1ccc(C(=O)NCC2(N(C)C)CCCCC2)cc1Cl,inactive: -27.7%
18,O=C(NCC1(N2CCCCC2)CCCCC1)c1cccc(Cl)c1,inactive: -15.6%
